# Source: patent US20100075897A1, “METHOD FOR S[…] BIOACTIVE PEPTIDES AND APPLICATION THEREOF” (JINAN UNIVERSITY, priority 2008, published 2010)
# B1: DP3.1 fusion polypeptide (peptide)
# peptide: PDICLPRWGCLWEFNPRGAHAEGTFTSDVSSYLEGQAAKEFIAWLVKGRG
# notes: ABP-LK-GLP fusion polypeptide; also called ABP-LK-GLP
# B2: DP6.2 fusion polypeptide (peptide)
# peptide: PLPHSHRAHSLPPFNPRGPHAEGTFTSDVSSYLEGQAAKEFIAWLVKGRG
# notes: as for B1
# B3: DP8.3 fusion polypeptide (peptide)
# peptide: PSSLLHWTHKIPALFNPRGSHAEGTFTSDVSSYLEGQAAKEFIAWLVKGRG
# notes: ABP-LK-GLP fusion polypeptide, copied as printed with PSS at the N-terminus (DP8.1 and DP8.2 have PS); also called ABP-LK-GLP
# Experiments:
# [1] = Half-life of ABP-LK-CT fusion polypeptide in mouse model using calcitonin antibody; format: in vivo
# [2] = Half-life of ABP-LK-BH3 fusion polypeptide in mouse model with BH3 antibody; format: in vivo; conditions: for Half-life t1/2: mouse model
# [3] = Half-life of ABP-LK-GLP fusion polypeptides in mouse model using GLP-1 antibody (competitive enzyme-linked immunoassay); format: in vivo
# [4] = system: Human thrombin and DPP IV; experiment: Cleavage of ABP-LK-GLP-1 with exogenous human thrombin and DPP IV in presence of HSA (HPLC/TOF-MS); format: in vitro ADME; conditions: thrombin and DPP IV digestion; for peptide MS integral area: 37° C., HSA present
# human serum albumin [5] = target: T1, human serum albumin (Homo sapiens, UniProt P02768); experiment: Surface plasmon resonance (BIAcore 3000) affinity of ABP-LK-GLP fusion polypeptide to human serum albumin; conditions: SPR, 1 to 1 binding model, calculated from kon and koff; read-out: Kd (dissociation constant between fusion polypeptide and human serum albumin)
# T1 construct: purchased Sigma-Aldrich
# Human thrombin = Human thrombin (Homo sapiens, UniProt P00734); experiment: Cleavage of ABP-LK-GLP-1 with exogenous human thrombin in presence of HSA (HPLC/TOF-MS); format: in vitro ADME; conditions: thrombin digestion; for peptide MS integral area: 37° C., HSA present
# [6] = Sung et al. 2003; cited from earlier work
# human serum albumin [7] = target: T2, human serum albumin (human, UniProt P02768 25-609); experiment: SPR (BIAcore 3000), HSA on CM5 chip, polypeptide injected, 1:1 model
# T2 construct: Bought protein; coated on plates (ELISA) or coupled to a CM5 chip (SPR); also called HSA; human albumin
molecule,measurement,setting,value
"CSNLSTCVLGKLSQELHKLQTYPRTNTGSGTP-NH2 [CT, reference compound]",Half-life t1/2,[1]; 11 μg polypeptide,1.25 h
same,Half-life t1/2,[1]; 200 μg polypeptide,2.11 h
LPHSHRAHSLPPFNPRGA RYGRELRRMSDEFE [ABP-LK-BH3],enhancement of the half-life of BH3 in blood,"[2]; fusion polypeptide versus BH3, mouse model",up to 195 times
same,Half-life t1/2,[2]; 12 μg polypeptide,42.3 h
same,Half-life t1/2,[2]; 100 μg polypeptide,86.5 h
LPHSHRAHSLPPFNPRGPCSNLSTCVLGKLSQELHKLQTYPRTNTGSGTP-NH2 [ABP-LK-CT],Half-life t1/2,[1]; 11 μg polypeptide,37.8 h
same,Half-life t1/2,[1]; 200 μg polypeptide,76.3 h
same,enhancement of the half-life of calcitonin in blood,[1]; fusion polypeptide versus calcitonin,up to 70 times
LPHSHRAHSLPPFNPRPA HAEGTFTSDVSSYLEGQAAKEFIAWLVKGRG [PA6.2],Half-life t1/2,[3]; 11 μg polypeptide,26.4 h
same,Half-life t1/2,[3]; 100 μg polypeptide,32.7 h
same,Half-life t1/2,[3]; 150 μg polypeptide,65.4 h
LPHSHRAHSLPPFNPRPP HAEGTFTSDVSSYLEGQAAKEFIAWLVKGRG [PP6.2],Half-life t1/2,[3]; 11 μg polypeptide,35.6 h
same,Half-life t1/2,[3]; 100 μg polypeptide,49.5 h
same,Half-life t1/2,[3]; 150 μg polypeptide,98.3 h
PDICLPRWGCLWEFNPRGA HAEGTFTSDVSSYLEGQAAKEFIAWLVKGRG [DP3.1],peptide MS integral area,[4]; time 0 h,28079570.3
same,peptide MS integral area,[4]; time 2 h,22632133.7
same,peptide MS integral area,[4]; time 6 h,19234505.7
same,peptide MS integral area,[4]; time 12 h,15977275.5
same,peptide MS integral area,[4]; time 16 h,3743753.1
same,peptide MS integral area,[4]; time 24 h,1881331.2
same,The ratio of area,[4]; time 0 h,100%
same,The ratio of area,[4]; time 2 h,80.6%
same,The ratio of area,[4]; time 6 h,68.5%
same,The ratio of area,[4]; time 12 h,56.9%
same,The ratio of area,[4]; time 16 h,13.3%
same,The ratio of area,[4]; time 24 h,6.7%
same,Kd,human serum albumin [5],1030 nM
PLPHSHRAHSLPPFNPRGP HAEGTFTSDVSSYLEGQAAKEFIAWLVKGRG [DP6.2],Half-life t1/2,[3]; 11 μg polypeptide,5.3 h
same,Half-life t1/2,[3]; 100 μg polypeptide,5.6 h
same,Half-life t1/2,[3]; 150 μg polypeptide,12.5 h
same,peptide MS integral area,Human thrombin; Time 0 h,10055375.5
same,peptide MS integral area,Human thrombin; Time 2 h,7974113.2
same,peptide MS integral area,Human thrombin; Time 6 h,6263427.6
same,peptide MS integral area,Human thrombin; Time 12 h,3764023.7
same,peptide MS integral area,Human thrombin; Time 16 h,2394306.8
same,peptide MS integral area,Human thrombin; Time 24 h,456948.1
same,Area ratio,Human thrombin; Time 0 h,100%
same,Area ratio,Human thrombin; Time 2 h,79.3%
same,Area ratio,Human thrombin; Time 6 h,62.3%
same,Area ratio,Human thrombin; Time 12 h,37.4%
same,Area ratio,Human thrombin; Time 16 h,23.8%
same,Area ratio,Human thrombin; Time 24 h,4.5%
same,Kd,human serum albumin [5],1440 nM
PNICLPRWGCLWDFNPRGA HAEGTFTSDVSSYLEGQAAKEFIAWLVKGRG [DP4.1],peptide MS integral area,[4]; time 0 h,12626709.1
same,peptide MS integral area,[4]; time 2 h,9482015.7
same,peptide MS integral area,[4]; time 6 h,6652133.7
same,peptide MS integral area,[4]; time 12 h,4459186.4
same,peptide MS integral area,[4]; time 16 h,2643753.6
same,peptide MS integral area,[4]; time 24 h,912774.9
same,The ratio of area,[4]; time 0 h,100%
same,The ratio of area,[4]; time 2 h,75.1%
same,The ratio of area,[4]; time 6 h,52.7%
same,The ratio of area,[4]; time 12 h,35.3%
same,The ratio of area,[4]; time 16 h,20.9%
same,The ratio of area,[4]; time 24 h,7.2%
PSSLLHWTHKIPALFNPRGS HAEGTFTSDVSSYLEGQAAKEFIAWLVKGRG [DP8.3],Kd,human serum albumin [5],2920 nM
"RYGRELRRMSDEFE [BH3, reference compound]",Half-life t1/2,[2]; 12 μg polypeptide,0.4 h
same,Half-life t1/2,[2]; 100 μg polypeptide,0.74 h
interferon-β,half-life,[6],8 h
B1,Kd,human serum albumin [7],1030 nM
B2,Kd,human serum albumin [7],1440 nM
B3,Kd,human serum albumin [7],2920 nM
